From patent publication US20100260680A1, “NOVEL BONE MASS INCREASING AGENT” (ORIENTAL YEAST CO., LTD., priority 2007, published 2010)

System: Human mesenchymal stem cells
Assay: ALP activity determination in human mesenchymal stem cells
Assay type: cell-based
Details: 10 nM; differentiation medium; Day 5
Procedure: Human mesenchymal stem cells were seeded on a 96-well plate (1×10^3 cells/well) (Nunc) and a 48-well plate (2.4×10^3 cells/well) (IWAKI). After 24 hours, the culture supernatant was removed from each plate and an osteoblast differentiation induction medium (Lonza) was introduced thereonto. The medium was replaced with new medium every 3 or 4 days.
At such time, peptide D was added at a concentration of 100 μM (group treated with peptide D). As a negative control, the control peptide was added at the same concentration.
Seven days after differentiation, the culture supernatant was removed from each plate and the cells were fixed with an acetone/ethanol solution. The ALP activity was determined using p-nitrophenyl phosphate as a substrate. Specifically, a carbonate buffer (5 mM MgCl2, 50 mM NaHCO3) containing p-nitrophenyl phosphate (Nacalai) (1 mg/mL) was added to each well (100 μL/well), followed by incubation at 37° C. Then, the OD value at 405 nm was determined with the use of a microplate reader (BMG Labtech) for each well.
Human mesenchymal stem cells (hMSC; Lonza) were seeded on a 96-well plate (Nunc) (2×10^3 cells/well). After cell adhesion had taken place, the medium was replaced with a differentiation medium prepared by adding 100 nM dexamethasone (SIGMA), 10 mM BGP(SIGMA), and 50 μg/mL ascorbic acid to a dedicated maintenance medium (Lonza). […]

B1: GST fusion peptide D: fusion protein of peptide D and GST (SEQ ID NO: 55), approximately 27 kDa (protein)
chain: MSPILGYWKIKGLVQPTRLLLEYLEEKYEEHLYERDEGDKWRNKKFELGLEFPNLPYYIDGDVKLTQSMAIIRYIADKHNMLGGCPKERAEISMLEGAVLDIRYGVSRIAYSKDFETLKVDFLSKLPEMLKMFEDRLCHKTYLNGDHVTHPDFMLYDALDVVLYMDPMCLDAFPKLVCFKKRIEAIPQIDKYLKSSKYIAWPLQGWQATFGGGDHPPKSDLVPRGSGGGGSYCWSQYLCY
With B1 as the molecule, how does the ALP activity read?
The ALP activity was “significant increase in ALP activity”.
